Apparent affinities of Ab-14 variants for a coronavirus HR2 peptide

From the AlphaSeq antibody data of Engelhart et al. 2022 (doi:10.1038/s41597-022-01779-4), copy in the FLAb collection.

Antigen: PDVDLGDISGINAS, a 14-residue peptide of the SARS-CoV-2 spike HR2 region.

Parent scFv Ab-14: VH joined to VL by a (GGGGS)3 linker. Changes lie in the heavy chain CDRs alone.
VH: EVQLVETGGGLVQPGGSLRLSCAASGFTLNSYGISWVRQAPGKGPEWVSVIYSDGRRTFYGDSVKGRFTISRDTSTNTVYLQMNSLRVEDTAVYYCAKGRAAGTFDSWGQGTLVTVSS
VL: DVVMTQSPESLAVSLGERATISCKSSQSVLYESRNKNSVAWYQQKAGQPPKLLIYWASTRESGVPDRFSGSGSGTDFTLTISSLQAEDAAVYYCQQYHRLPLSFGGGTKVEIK

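Phage display of a naive human antibody library on the peptide gave the parent. The library (AAYL49) carries one to three amino acid substitutions per variant, with no insertions or deletions. In AlphaSeq, yeast of one mating type display the scFv and yeast of the other type display the target. Binding brings cells together so that they mate, and sequencing counts the barcode pairs among the diploids. Scores were corrected for input abundance and mapped to Kd with protein pairs of known affinity run in the same pool. Each pool was mated in three replicate cultures.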

Substitutions are numbered in sequence along the VH above, starting at 1 (not Kabat).
Values are log10 of the apparent Kd in nM; lower means stronger binding.
Averages over replicates are reported, and they cover detected replicates only.
An entry "no signal" has no value in the source: the pair was not observed among the diploids in any replicate. This suggests poor binding but is not conclusive.

| changes | mean log10 Kd (nM) | replicates with signal |
|---|---|---|
| I51L/Y60L/S107W | no signal | 0 of 3 |
| T28W/S53C/R56E | 4.27 | 1 of 3 |
| T58G/V64S/T104P | 4.31 | 3 of 3 |
| F27C/N30A/D62N | 2.61 | 1 of 3 |
| G33Q/Y52H/V64K | no signal | 0 of 3 |
| F27I/G103V/F105C | 4.91 | 1 of 3 |
| S53E/G99R/G103D | 4.48 | 2 of 3 |
| I51L/A102Y/T104I | 4.26 | 1 of 3 |
| G26Q/Y52G/V64Y | 3.18 | 1 of 3 |
| G26T/D54M/K65A | no signal | 0 of 3 |
| D54V/R100Y/A102F | no signal | 0 of 3 |
| T58V/G103I | no signal | 0 of 3 |
| F27M/S31I/R100H | 2.75 | 3 of 3 |
| S31Q/D106K | 5.05 | 3 of 3 |
| G26Y/F105P/D106Q | 4.42 | 2 of 3 |
| I34V/F59I/K65H | 4.44 | 1 of 3 |
| G26D/R57A/F59M | 4.70 | 2 of 3 |
| T28C/G33N/F105A | no signal | 0 of 3 |
| F27L/Y32C/V50L | 4.15 | 1 of 3 |
| G26Y/I34F/D54R | 4.11 | 1 of 3 |
| T28L/G61D | 1.11 | 3 of 3 |
| G26C/F27M/Y60W | no signal | 0 of 3 |
| L29I/A101W/D106R | 5.51 | 1 of 3 |
| Y52W/G55M/D106C | no signal | 0 of 3 |
| G33H/Y52F/D106C | 6.05 | 1 of 3 |
| G99C/G103S | no signal | 0 of 3 |
| Y32W/V50I/G103V | no signal | 0 of 3 |

Second part, the sequence after the result:

| mean log10 Kd (nM) | replicates with signal | changes |
|---|---|---|
| no signal | 0 of 3 | G26Y/T28E/T58A |
| 3.95 | 2 of 3 | N30M/G103W/F105T |
| no signal | 0 of 3 | L29Y/S35H/G103D |
| 4.21 | 1 of 3 | Y52K/S63W/S107Q |
| 2.80 | 1 of 3 | G61N/S63T |
| no signal | 0 of 3 | Y52M/F59A/K65H |
| no signal | 0 of 3 | I34F/R56L/K65Y |
| no signal | 0 of 3 | S35Q/I51L |
| no signal | 0 of 3 | I34Y/D62M/V64E |
| no signal | 0 of 3 | G55I/T104P/D106I |
| 2.23 | 3 of 3 | R56M/G99D |
| no signal | 0 of 3 | R57W/R100N/S107P |
| no signal | 0 of 3 | I51P/G103I |
| no signal | 0 of 3 | R56E/D62R/V64R |
| no signal | 0 of 3 | G26L/T28V/A102S |
| 0.94 | 3 of 3 | S31R/R56T/D106R |
| no signal | 0 of 3 | V50E/T58D/S107E |
| 5.89 | 2 of 3 | F27H/F59G/A102V |
| no signal | 0 of 3 | Y60T/R100A/G103F |
| 4.05 | 3 of 3 | D54W/R57Q/V64W |
| 3.24 | 1 of 3 | N30D/D54K/R57S |
| 3.35 | 1 of 3 | N30R/R57G/G61M |
| 1.80 | 3 of 3 | K65L/T104K/S107V |
| 3.85 | 1 of 3 | R57L/Y60M/G61R |
| no signal | 0 of 3 | Y52H/F59H |
| 3.56 | 1 of 3 | Y60D/R100H/D106S |
| no signal | 0 of 3 | Y60G/K65F/G99I |

The closing 8 entries, repeated:

{"changes": "D54W/R57Q/V64W", "mean log10 Kd (nM)": "4.05", "replicates with signal": "3 of 3"}
{"changes": "N30D/D54K/R57S", "mean log10 Kd (nM)": "3.24", "replicates with signal": "1 of 3"}
{"changes": "N30R/R57G/G61M", "mean log10 Kd (nM)": "3.35", "replicates with signal": "1 of 3"}
{"changes": "K65L/T104K/S107V", "mean log10 Kd (nM)": "1.80", "replicates with signal": "3 of 3"}
{"changes": "R57L/Y60M/G61R", "mean log10 Kd (nM)": "3.85", "replicates with signal": "1 of 3"}
{"changes": "Y52H/F59H", "mean log10 Kd (nM)": "no signal", "replicates with signal": "0 of 3"}
{"changes": "Y60D/R100H/D106S", "mean log10 Kd (nM)": "3.56", "replicates with signal": "1 of 3"}
{"changes": "Y60G/K65F/G99I", "mean log10 Kd (nM)": "no signal", "replicates with signal": "0 of 3"}

Nonspecific signal, from three strains lacking the peptide, appeared in 15% of pairings of library AAYL49, centred on 4.06 (5% of these signals below 2.83); values are not corrected for it.